# Measured affinities in a library of Ab-91 heavy chain variants

Binding partner: SARS-CoV-2 spike HR2 peptide, sequence PDVDLGDISGINAS.

Each scFv is VL, the linker GGGGSGGGGSGGGGS, VH, as in the parent Ab-91, and differs from it in the CDRs of the heavy chain only.
VL: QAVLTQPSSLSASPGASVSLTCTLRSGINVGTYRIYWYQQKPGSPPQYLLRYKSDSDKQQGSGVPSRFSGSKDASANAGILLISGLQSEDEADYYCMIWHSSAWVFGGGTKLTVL
VH: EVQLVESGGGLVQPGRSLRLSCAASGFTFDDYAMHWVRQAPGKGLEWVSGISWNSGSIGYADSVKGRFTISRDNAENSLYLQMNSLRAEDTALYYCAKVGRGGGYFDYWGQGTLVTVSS

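The library (AAYL51) carries one to three amino acid substitutions per variant, with no insertions or deletions. Affinity was read by AlphaSeq, a pooled yeast mating assay with surface-displayed partners. Mating (16 h, 30 °C) was followed by selection of diploids and sequencing of their barcodes. A regression on co-assayed BCL2-family reference pairs converts the normalised counts of each replicate to an apparent Kd. Mating was done three times.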

Positions count from residue 1 of the parent VH; G50D puts D in place of G.
All variants listed here change G50 of the VH, counted from its first residue.
The read-out is the apparent dissociation constant on a log10 scale (nM): the lower, the stronger.
A mean of the replicates is given; it leaves out those without a signal.
A pair that was not seen in that replicate is written "nd"; this usually means weak binding, but a binder can also be missed.
As a blank, each scFv also met three strains without target: over library AAYL51, 21% of these pairings were detected, typically at 4.54 and seldom below 3.26.
For reference, the parent read 1.86 as the reference entry and 0.88 as a member of this library.

The variant G50D+W53A+G102Y gave 6.27, 5.46, nd (mean 5.86). With Y32M+G50A+Y105S the result was nd, nd, nd. For T28R+G50F+D62C, the assay gave nd, nd, nd. With F29H+G50F+I51Y the result was nd, nd, nd. The variant G50K+G102Y+Y108K showed 4.09, nd, nd. The variant G50Q+G103F+Y108T gave nd, nd, nd. With D31G+G50L+D107A the result was nd, nd, nd. For T28P+G50C+Y60I, the assay gave 5.69, nd, 5.08 (mean 5.38). The variant G26L+G50V+G103D showed nd, nd, nd.

The variant H35A+G50S+A61S showed 4.18, 4.28, nd (mean 4.23). The variant F29D+G50M gave nd, nd, nd. The variant G50S+W53P+G59R gave 4.10, nd, nd. With G50W+G59V+S63L the result was 4.26, 3.94, nd (mean 4.10). The variant G50N+N54E+K65R gave nd, nd, nd. With F27K+F29E+G50M the result was 4.21, 5.85, nd (mean 5.03). The variant G50Y+I51C+Y60S gave nd, nd, nd. The variant A33D+G50Q+G104I gave nd, nd, 4.82. The variant G50H+K65I+G102M gave 3.67, nd, nd.

For T28K+H35Q+G50N, the assay gave 5.01, 4.84, 5.87 (mean 5.24). For D30T+G50Y+K65W, the assay gave nd, 4.42, nd. The variant G50L+R101F+F106W showed nd, nd, nd. For D30G+G50T+D107W, the assay gave nd, nd, nd. With H35Y+G50A+V64L the result was nd, nd, nd. With A33S+M34E+G50A the result was 5.39, 4.86, nd (mean 5.12). With G50S+W53H+D107E the result was nd, nd, nd. The variant G50E+I58G gave nd, nd, nd. With G50F+N54Q+V64R the result was nd, nd, nd.

With D30K+G50A+G103P the result was nd, nd, 3.55. The variant F29C+G50L+I51H showed nd, nd, nd. With G50P+W53S the result was nd, nd, nd. For G50N+S52I+G59M, the assay gave nd, 3.29, nd. For G50V+V64I+G102V, the assay gave 4.82, nd, nd. The variant H35E+G50F+G102S showed nd, nd, 3.32. With F29P+G50I+A61L the result was nd, nd, nd. With G50Q+S55H+V99D the result was nd, nd, nd. The variant A33F+G50M+I58M showed 3.58, nd, nd.

Excerpt, the final 3 entries:

changes,"log10 Kd, replicates","mean, log10 nM"
F29P+G50I+A61L,"nd, nd, nd",nd
G50Q+S55H+V99D,"nd, nd, nd",nd
A33F+G50M+I58M,"3.58, nd, nd",3.58

Values reported by Engelhart et al. 2022, doi:10.1038/s41597-022-01779-4 (FLAb copy).